Results from ChEMBL document CHEMBL3861947 (Medchemcomm, 2016).

The chains behind the UniProt entries cited, without tags or fusion partners. Where a name states a change or a piece, a line headed by the entry shows the natural chain unless it says otherwise.
UniProt Q9GZT9: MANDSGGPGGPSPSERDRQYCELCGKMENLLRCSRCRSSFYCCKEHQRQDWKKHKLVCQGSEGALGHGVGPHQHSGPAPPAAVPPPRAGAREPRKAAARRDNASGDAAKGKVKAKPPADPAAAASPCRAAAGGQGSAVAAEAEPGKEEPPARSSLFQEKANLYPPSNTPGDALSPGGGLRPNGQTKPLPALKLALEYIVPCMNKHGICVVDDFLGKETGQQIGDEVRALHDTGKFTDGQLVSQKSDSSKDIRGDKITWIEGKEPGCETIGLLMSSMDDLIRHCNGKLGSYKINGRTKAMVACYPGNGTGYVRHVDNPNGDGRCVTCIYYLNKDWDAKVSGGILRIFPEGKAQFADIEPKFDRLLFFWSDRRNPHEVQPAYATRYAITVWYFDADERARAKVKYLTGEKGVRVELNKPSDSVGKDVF

Target: Egl nine homolog 1 (Homo sapiens, UniProt Q9GZT9)

- IC50: 0.39 µM
SMILES: O=C(O)CNC(=O)c1ncc(-c2cccc(Cl)c2)cc1O [VADADUSTAT]
